Literature values in article PMC12692388.
pKd: −log10 of the molar value.

Molecular target: RACK1 (Homo sapiens) (UniProt P63244)

pKd: 4.30
Substance: RACK1 (from UniProt P63244)
